Only a part is listed here, and it is no random draw. Active and inactive are the calls of the source. Cut-off read from the data, not from the text of the source: active = activation above about 18%; inactive = the rest.
Each molecule was assayed against Mu-type opioid receptor (Homo sapiens) + Delta-type opioid receptor (Homo sapiens) (UniProt P35372+P41143) (assay: inducers of mu-delta opioid receptor heterodimers – cell-based, luminescence, primary screen (AID 504326;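 note: 0% = vehicle-treated cells and 100% = reference agonist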)). Settings: cells, OPRM1-OPRD1 heterodimerization, at 9.3 µM, hits give high values.

Amino acid sequences for entries named in this document (tags omitted).
UniProt P35372, whole entry, looked up: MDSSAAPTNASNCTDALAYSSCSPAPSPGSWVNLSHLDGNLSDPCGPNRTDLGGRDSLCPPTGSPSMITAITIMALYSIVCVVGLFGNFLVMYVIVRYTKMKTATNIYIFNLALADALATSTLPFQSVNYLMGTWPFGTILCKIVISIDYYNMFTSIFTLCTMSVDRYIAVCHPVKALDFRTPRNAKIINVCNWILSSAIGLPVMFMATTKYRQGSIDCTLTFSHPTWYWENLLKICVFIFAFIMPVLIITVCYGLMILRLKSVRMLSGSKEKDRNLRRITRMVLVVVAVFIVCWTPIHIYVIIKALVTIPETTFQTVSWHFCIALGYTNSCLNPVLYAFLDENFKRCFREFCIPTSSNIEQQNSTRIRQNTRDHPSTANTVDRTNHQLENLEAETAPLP
UniProt P41143, whole entry, looked up: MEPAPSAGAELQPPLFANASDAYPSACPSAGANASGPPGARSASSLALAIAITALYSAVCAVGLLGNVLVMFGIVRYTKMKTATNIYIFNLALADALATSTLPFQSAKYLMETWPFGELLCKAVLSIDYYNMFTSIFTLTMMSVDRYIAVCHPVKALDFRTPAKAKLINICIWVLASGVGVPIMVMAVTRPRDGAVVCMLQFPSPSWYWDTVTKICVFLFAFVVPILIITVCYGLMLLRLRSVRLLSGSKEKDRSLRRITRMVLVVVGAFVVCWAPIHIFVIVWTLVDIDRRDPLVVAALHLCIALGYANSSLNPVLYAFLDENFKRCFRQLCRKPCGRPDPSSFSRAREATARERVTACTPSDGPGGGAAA

SMILES | activation
N#CCC(=O)N/N=C\c1ccccc1OC/C=C/c1ccccc1 | inactive: 1.3%
Cc1ccc2c(c1)C1CN(C)CCC1N2CC(=O)N(C)c1ccccc1 (stereo unspecified) | inactive: -0.76%
COCCCNC(=O)Cn1cnc2c(OCc3ccccc3)ncnc21 | inactive: -2.87%
CCOC(=O)Nc1ccc2c(c1)nc1n2CCN(CCOC)C1 | inactive: -1.94%
CSc1nc(N)nc2c1ncn2CC(=O)N[C@H](CO)Cc1c[nH]c2ccccc12 | inactive: -2.82%
Cc1ccc2c(c1)C1CN(C)CCC1N2C(=O)c1cccnc1Cl (stereo unspecified) | inactive: -0.46%
O=P1(N(CCCl)CCCl)OCCCS1 (stereo unspecified) | inactive: -1.77%
O=[N+]([O-])c1ccccc1NC1CCN(Cc2ccccc2)CC1 | inactive: -0.56%
Cc1ccc2c(c1)C1CN(C)CCC1N2C(=O)Nc1ccc(Cl)cc1 (stereo unspecified) | inactive: 3.54%
O=C(Cn1cnc2ccccc21)NCCCN1CCOCC1 | inactive: -1.31%
CC(C)[C@H](NC(=O)N1CCn2c1nc1ccccc12)C(=O)N[C@H](C(=O)O)c1ccccc1 | inactive: -2.15%
Cn1c(=O)c2ncn(CC(=O)NC3CCCCCC3)c2n(C)c1=O | inactive: -1.58%
CC(C)[C@H](NC(=O)N1CCn2c1nc1ccccc12)C(=O)NCc1ccc2c(c1)OCO2 | inactive: -2.2%
Cn1c(=O)n(Cc2ccc(Cl)cc2)c(=O)c2c1nc1n2CCN1Cc1ccco1 | inactive: 0.94%
CN(C)C(=O)Cn1c(SCC(=O)NC2CCCCC2)nc2ccccc21 | inactive: 0.07%
CC(=O)Nc1ccc2c(c1)nc1n2CCN(C(C)c2ccccc2)C1 (stereo unspecified) | inactive: -3.78%
C(Cc1nn[nH]n1)Cc1nn[nH]n1 | inactive: -3.25%
O=C(Nc1ccccc1Cl)N1CCn2c(nc3ccccc32)C1 | inactive: -1.21%
COc1ccc(CCNC(=O)Cn2cnc3c2c(=O)n(C)c(=O)n3C)cc1OC | inactive: -1.45%
Cn1c(=O)[nH]c(=O)c2c1nc(CN(Cc1ccccc1)Cc1ccccc1)n2CCN1CCOCC1 | inactive: -2.76%
CSCC[C@H](NC(=O)N1CCn2c1nc1ccccc12)C(=O)NCc1ccc(F)cc1 | inactive: -1.86%
N=c1n(CCO)c2ccccc2n1CCN1CCCCC1 | inactive: -0.65%
Nc1ccc([As](=O)(O)c2ccc([N+](=O)[O-])cc2)cc1 | inactive: -1.12%
COc1ccc(C(=O)N2CCn3c2nc2ccccc23)cc1 | inactive: -1.56%
COc1cc(C(=O)OCCn2c(=O)c3c(ncn3CCN(C)C)n(C)c2=O)cc(OC)c1OC | inactive: -0.89%
O=C(Cn1c(CC(=O)N2CCCC2)nc2ccccc21)NCc1ccccc1 | inactive: 0.7%

Source: PubChem BioAssay AID504326 (The Scripps Research Institute Molecular Screening Center, 2011)
